Source: patent US9062043B2, “Fused tricyclic compounds as serine-threonine protein kinase and PARP modulators” (SENHWA BIOSCIENCES, INC., priority 2006, dated 2015)

Chains of the proteins cited; added tags and fusions are not shown. Residues count along the entry.
UniProt P06239, 2-509 limits assumed: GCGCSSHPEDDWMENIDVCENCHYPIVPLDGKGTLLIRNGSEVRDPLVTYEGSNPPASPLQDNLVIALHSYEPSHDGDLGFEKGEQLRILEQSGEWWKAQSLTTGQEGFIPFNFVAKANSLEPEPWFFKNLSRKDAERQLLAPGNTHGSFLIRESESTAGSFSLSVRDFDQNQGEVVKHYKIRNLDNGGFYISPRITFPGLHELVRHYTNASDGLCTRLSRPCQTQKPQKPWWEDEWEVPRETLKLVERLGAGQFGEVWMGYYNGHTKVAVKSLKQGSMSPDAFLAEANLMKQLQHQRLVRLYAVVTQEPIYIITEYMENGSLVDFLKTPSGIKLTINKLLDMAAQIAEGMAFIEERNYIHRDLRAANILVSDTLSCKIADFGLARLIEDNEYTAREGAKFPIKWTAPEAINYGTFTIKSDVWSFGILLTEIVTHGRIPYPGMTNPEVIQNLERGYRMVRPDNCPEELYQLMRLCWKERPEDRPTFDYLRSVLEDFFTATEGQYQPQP

What was measured:
MiaPaca xenografts = assay: Tumor suppression in MiaPaca xenograft mice; type: in vivo
protein kinases [1] = molecular target: protein kinases (Homo sapiens, UniProt O94804); assay: Kinase inhibition, percentage of activity at 0.5 μM, standardized radiometric kinase assays; type: biochemical; conditions: LOK(h);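 note: each kinase tested separately, with activity read as 33P-labelled substrate protein captured on filters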
protein kinases [2] = molecular target: protein kinases (Homo sapiens, UniProt P06239); assay: as above; type: biochemical; conditions: Lck(h)
protein kinases [3] = molecular target: protein kinases (Homo sapiens, UniProt P24941); assay: as above; type: biochemical; conditions: CDK2/cyclinA(h)
protein kinases [4] = molecular target: protein kinases (Homo sapiens, UniProt Q13043); assay: as above; type: biochemical; conditions: MST1(h)
protein kinases [5] = molecular target: protein kinases (Homo sapiens, UniProt Q9HBH9); assay: as above; type: biochemical; conditions: Mnk2(h)
BC-PC3 cells xenograft = conditions: 60 mg/kg QD IV, 50 mg/kg BID IV or 100 mg/kg BID IP
MDA-MB-231 xenografts = conditions: IV 30 and 60 mg/kg and oral 200 mg/kg

With `C#Cc1cccc(Nc2nc3cc(C(=O)O)ccc3c3cncnc23)c1` [compound A2] as the compound, how does the Tumor progression inhibition (MiaPaca xenografts; IV 50 and 60 mg/kg and IP 100 mg/kg) read?
Its Tumor progression inhibition is “significantly inhibited tumor progression”.

And the Tumor progression inhibition (MiaPaca xenografts; oral 100 mg/kg QDx8 and 200 mg/kg QDx6)?
The Tumor progression inhibition was “significantly inhibited tumor progression”.

And the “% activity at 0.5 μM” value (protein kinases [1])?
The value was 84%.

And the “% activity at 0.5 μM” value (protein kinases [2])?
Its value is 63%.

And the “% activity at 0.5 μM” value (protein kinases [3])?
The value was 63%.

And the “% activity at 0.5 μM” value (protein kinases [4])?
Its value is 96%.

What about the “% activity at 0.5 μM” value (protein kinases [5]) of the same compound?
Its value is 63%.

What about the “Tumor progression inhibition (FIG. 4A)” value (BC-PC3 cells xenograft) of the same compound?
The value was “significantly inhibited tumor progression”.

And the Tumor progression inhibition (MDA-MB-231 xenografts)?
Its Tumor progression inhibition is “significantly inhibited tumor progression”.
